Data set [1] relates to rat. As to conditions: daily per os during 6 weeks, 60480 min.
Data set [2] has as its system rat. As to conditions: per os.
Another data set has as its system human lymphocytes. The conditions noted are these: in vitro.
Another data set concerns Cynomolgus monkeys. The conditions noted are these: daily per os during 5 weeks, 50400 min.

As for (+)-catechin hydrochlorolysinate, in the data set with rat [1], the “subacute toxicity: well tolerated at doses up to” value is “up to 1000 mg/kg”. In the data set with rat [2] (both sexes), the acute toxicity entry is listed as “over 6 g/kg”. Besides, in the data set on rat [2] (up to 6 g/kg), the behavioural changes result is “did not cause behavioural changes” and the mortality entry is reported as “No mortality”. Also, the “chromosomic aberrations on human lymphocytes” value in the data set with human lymphocytes is recorded as “absence of chromosomic aberrations”. Further, in the data set on Cynomolgus monkeys, the “subacute toxicity: well tolerated at doses up to” value is “up to 1000 mg/kg”.
